From patent publication US20260284003A1, “COMPOSITIONS AND METHOD FOR MANAGEMENT OF PAIN AND ALLERGY” (priority 2023, published 2026) come the findings set out here.

Format in all cases: in vivo, C57BL/6 mice
Assay [1] concerns Cisplatin induced peripheral neuropathy animal models. Briefly: Hot plate test, cisplatin induced peripheral neuropathy. To be noted: reaction latency, 52° C.; BCP 10 mg, PEA 5 mg, BPE 10 mg, BPB 15 mg, Ibuprofen 30 mg. As to the method: Animals are placed on the hot plate one at a time. Latency to respond to the heat stimulus is measured by the amount of time it takes for the animal to lick one of its paws. Animals were placed on a hot-plate apparatus. In order to measure thermal pain, the temperature of the hot plate surface was set to 52° C. The reaction latency as well as the time between when the animals were placed and the onset of paw-licking or jumping behaviors were measured in seconds(s). To minimize tissue damage, a cut-off time of 40 s was adopted (Moureq et al. Alleviation of cisplatin-induced neuropathic pain, neuronal apoptosis, and systemic inflammation in mice by rapamycin., Frontiers in Aging Neuroscience., 14, 2022).

The next assay deals with TRPV1. Briefly: TRPV1 expression in spinal tissue lysate (Western blotting). The conditions noted are these: normalized to GAPDH, cisplatin = 1, control 0.3, BCP 10 mg, PEA 5 mg, BPE 10 mg, BPB 15 mg, Ibuprofen 30 mg, oral 21 days. The protocol:
(§1) In the current study, TRPV1 and COX-2 expression was assessed in the spinal tissue lysate of the animals, using Western blotting. Briefly, proteins from the spinal tissue were separated in a 10% SDS-PAGE and transferred to PVDF membrane. The TRPV1 and COX-2 expressions were probed using specific monoclonal antibodies (ABclonal, Dusseldorf, Germany). GAPDH was used as housekeeping gene control. The expression of TRPV1 and COX-2 were normalized to that of GAPDH, and fold change was calculated w.r.t cisplatin group.
(Immunoblotting shows a protein as a band on a membrane.)

For another assay, the system named is COX-2. Nature of the assay: COX-2 expression in spinal tissue lysate (Western blotting). The conditions noted are these: normalized to GAPDH, cisplatin = 1, control 0.7, BCP 10 mg, PEA 5 mg, BPE 10 mg, BPB 15 mg, Ibuprofen 30 mg, oral 21 days. As to the method:
as §1

The test system of assay [2] is Cisplatin induced peripheral neuropathy animal models. Briefly: Tail-flick test, cisplatin induced peripheral neuropathy. To be noted: tail withdrawal latency; BCP 10 mg, PEA 5 mg, BPE 10 mg, BPB 15 mg, Ibuprofen 30 mg. The protocol:
This is a test of acute nociception in which a high-intensity thermal stimulus is directed to the tail of a mouse or a rat. The time from onset of stimulation to a rapid flick/withdrawal of the tail from heat source is recorded. Thermal (radiant heat) sensation of animal tail part was assessed by observation of tail flick response as per D'Aemour and Smith method with minor modifications (Hargreaves et al. A new and sensitive method for measuring thermal nociception in cutaneous hyperalgesia. Pain 32 (1988) 77-88). The one-centimeter distance from the tail terminal region was located on the slit of the plantar device. Thermal sensitivity of mice tail was recorded as tail withdrawal latency. Brisk withdrawal of tail from the plantar device was considered as a progression of neuropathic pain. Cut-off stimuli, i.e., 15 s was maintained to avoid potential tissue damage. Mice were tested after 24 h of treatment injections for the drug-response evaluation.

Take `CC(C)Cc1ccc(C(C)C(=O)O)cc1` (stereo not shown) [Ibuprofen, reference compound]: the “Hot plate test Mean Diff., Cisplatin vs. treatment (Tukey's multiple comparisons test)” value in assay [1] was −18.79. For the same compound, the “TRPV1 expression (fold change w.r.t cisplatin group)” value with TRPV1 came to 1.8. Also, the “Cox 2 expression (fold change w.r.t cisplatin group)” value in the assay with COX-2 was found to be 0.6. For the same compound, the “Tail Flick test Mean Diff., Cisplatin vs. treatment (Tukey's multiple comparisons test)” value in assay [2] is listed as −6.25.
